# This is a selection; strong and weak results do not stand in their true shares. The source made the active and inactive calls. The call rests on the fitted dose curve; in most records, active means well fitted curve in the direction sought with a large enough effect; inactive means no such curve, though single readings can be large or run the other way.
# Sequences of proteins named here, by UniProt entry; tags and fusion partners are left off. A change or cut given only in a name is not applied to a line headed by its entry.
# UniProt P04062: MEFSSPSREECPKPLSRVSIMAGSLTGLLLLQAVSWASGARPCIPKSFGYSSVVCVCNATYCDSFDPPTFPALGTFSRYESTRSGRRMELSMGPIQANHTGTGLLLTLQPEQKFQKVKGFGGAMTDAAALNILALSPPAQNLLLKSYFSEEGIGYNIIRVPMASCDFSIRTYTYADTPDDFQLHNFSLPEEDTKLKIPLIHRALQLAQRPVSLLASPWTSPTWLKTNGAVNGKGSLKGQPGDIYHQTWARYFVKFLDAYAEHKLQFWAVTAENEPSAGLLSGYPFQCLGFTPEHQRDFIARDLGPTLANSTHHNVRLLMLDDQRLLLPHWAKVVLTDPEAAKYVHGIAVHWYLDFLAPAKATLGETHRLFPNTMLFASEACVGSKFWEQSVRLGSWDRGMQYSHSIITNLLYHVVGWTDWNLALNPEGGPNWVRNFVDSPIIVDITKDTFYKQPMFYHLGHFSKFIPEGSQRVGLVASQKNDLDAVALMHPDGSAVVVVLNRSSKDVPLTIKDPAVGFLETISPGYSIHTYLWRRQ
# Target: Lysosomal acid glucosylceramidase (Homo sapiens) (UniProt P04062)
# Assay: qHTS Assay for Inhibitors and Activators of N370S glucocerebrosidase as a Potential Chaperone Treatment of Gaucher Disease: Chaperone Activity in Non-Gauche Fibroblasts After Multi-day Incubation with Compound
# Settings: Wild-type fibroblasts, GC immunofluorescence, 5-day incubation
# Excerpt: NIH Chemical Genomics Center [NCGC] NIH Molecular Libraries Probe Production Centers Network [MLPCN] MLPCN Grant: MH086442-01 Assay Submitter (PI): Wei Zheng Glucocerebrosidase (GC) catalyzes the hydrolysis of beta-glucocerebroside to glucose and ceramide in lysosomes. Mutations in the glucocerebrosidase gene result in Gaucher disease, an autosomal recessive lysosomal storage disorder. Many of the mutations encountered in patients with Gaucher disease are missense alterations that may cause misfolding, decreased stability and/or mistrafficking of this lysosomal protein. […] These inhibitors include iminosugar analogs and three non-iminosugar inhibitors identified from a previous HTS of 62,000 compounds with the wild type recombinant enzyme. However, the enhancement of enzyme activity by the chaperone action of an enzyme inhibitor must be balanced against the direct inhibition of the enzyme. An enzyme activator could also function as a chaperone by binding to the enzyme and helping to correct its misfolding and mistrafficking. […] This assay attempts to quantitate translocated glucocerebrosidase protein in patient-derived fibroblasts following extended compound incubation. […]
# NCGC Assay Protocol Summary: 1. […] Visualized using a fluorescence microscope and the intensity of fluorescence in the selected areas were calculated. […]
row,SMILES,Potency
1,Cc1cc(N2CCOCC2)nc2ccc(NC(=O)C3CCCCC3)cc12,active: 31.6 µM

# From PubChem BioAssay AID2589 (National Center for Advancing Translational Sciences (NCATS), 2010)
